The source of these data is patent US20090136460A1 (VANDERBILT UNIVERSITY, priority 2007, published 2009).

Sequences of proteins named here, by UniProt entry; tags and fusion partners are left off.
UniProt P25099, whole entry: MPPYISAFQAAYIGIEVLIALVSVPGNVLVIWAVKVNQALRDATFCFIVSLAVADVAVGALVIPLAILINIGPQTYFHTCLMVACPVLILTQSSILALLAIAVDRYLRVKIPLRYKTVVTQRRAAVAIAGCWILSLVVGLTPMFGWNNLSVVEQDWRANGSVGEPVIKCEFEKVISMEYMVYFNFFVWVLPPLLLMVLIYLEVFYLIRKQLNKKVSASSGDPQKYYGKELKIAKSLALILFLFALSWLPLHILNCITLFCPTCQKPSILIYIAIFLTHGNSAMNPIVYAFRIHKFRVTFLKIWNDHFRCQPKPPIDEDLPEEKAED
UniProt Q60612, whole entry: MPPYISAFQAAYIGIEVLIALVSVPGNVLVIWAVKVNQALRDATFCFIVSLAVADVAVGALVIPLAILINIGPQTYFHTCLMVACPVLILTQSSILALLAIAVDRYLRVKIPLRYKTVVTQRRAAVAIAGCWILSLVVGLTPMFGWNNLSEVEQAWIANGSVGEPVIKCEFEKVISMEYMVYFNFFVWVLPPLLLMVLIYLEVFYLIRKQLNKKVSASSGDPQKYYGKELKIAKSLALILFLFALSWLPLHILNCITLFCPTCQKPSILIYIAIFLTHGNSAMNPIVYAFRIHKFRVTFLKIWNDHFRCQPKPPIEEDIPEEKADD

The target in one assay is A1 adenosine receptor (Rattus norvegicus, UniProt P25099). Conditions: cited from earlier work.
Another assay addresses A1 receptors (Mus musculus, UniProt Q60612). The assay can be described thus: Inhibition of forskolin-stimulated cAMP accumulation in mouse eEPCs. Conditions: data from the current study (no reference); 95% CI in parentheses. On the technique in general: Changes in cAMP serve as a functional read-out for many G protein-coupled receptors.
Another assay concerns the target T1, A2B receptors (Mus musculus, UniProt Q60614).
T1 sequence (Q60614 1-332): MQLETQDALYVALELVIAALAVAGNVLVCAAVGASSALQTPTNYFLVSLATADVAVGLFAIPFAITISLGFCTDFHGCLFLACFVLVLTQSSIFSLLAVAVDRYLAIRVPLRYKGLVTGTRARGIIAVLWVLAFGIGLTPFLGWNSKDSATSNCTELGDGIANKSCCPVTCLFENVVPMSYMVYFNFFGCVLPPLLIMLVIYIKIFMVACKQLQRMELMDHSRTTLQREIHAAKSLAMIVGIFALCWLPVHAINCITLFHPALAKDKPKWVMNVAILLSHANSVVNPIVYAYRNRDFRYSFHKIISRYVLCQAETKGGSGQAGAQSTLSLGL
Kind of assay: NECA-stimulated cAMP accumulation in MCEC-1 cells. Conditions: data from the current study (no reference); 95% CI in parentheses.

The structures appear in SMILES notation.

On to `CCNC(=O)[C@H]1O[C@@H](n2cnc3c(N)nc(NCCc4ccc(CCC(=O)O)cc4)nc32)[C@H](O)[C@@H]1O` [CGS21680, 4-((N-ethyl-5′-carbamoyladenos-2-yl)-aminoethyl)-phenyl-propionic acid], for which the “Affinity or potency at A1, rat (r), log” value on A1 adenosine receptor ([7] Hutchison et al. (1989), rat brain, radioligand [3H]CHA) is on record as −5.5 log mol/L. Also, at A1 adenosine receptor (read-out: Affinity or potency at A1, rat (r), [6] Maemoto et al. (1997), brain cortex, radioligand [3H]DPCPX), the Ki was 36.3 µM.

As for `CCCn1c(=O)c2[nH]c(C3CCCC3)nc2n(CCC)c1=O` [DPCPX, 8-cyclopentyl-1,3-dipropylxanthine], at A1 receptors, the “Affinity or potency (Ki, KD, KB, IC50 or EC50) at A1, mouse (m), current study” value is recorded as 1.5 (1.1-2.1) nmol/L.

As to `CCNC(=O)[C@H]1O[C@@H](n2cnc3c(N)ncnc32)[C@H](O)[C@@H]1O` [NECA, 5′-N-ethylcarboxamidoadenosine], the “Affinity or potency (Ki, KD, KB, IC50 or EC50) at A2B, mouse (m), current study” value at A2B receptors was 449 (291-693) nmol/L.
